Biological target: recombinant human TNFα (human, UniProt P01375 77-233)
Test: cell-based or functional assay

The chains behind the UniProt entries cited, without tags or fusion partners. Residues count along the entry.
UniProt P01375, 77-233 limits assumed: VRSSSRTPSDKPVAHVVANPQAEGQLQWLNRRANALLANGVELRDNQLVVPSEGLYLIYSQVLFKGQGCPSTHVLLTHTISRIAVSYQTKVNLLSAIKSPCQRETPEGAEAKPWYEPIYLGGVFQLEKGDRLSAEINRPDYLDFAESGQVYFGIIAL

- IC50, TNFα-induced apoptosis in L929 fibroblasts: 0.0362 µg/mL
B1: infliximab (antibody, V domains shown)
VH: EVKLEESGGGLVQPGGSMKLSCVASGFIFSNHWMNWVRQSPEKGLEWVAEIRSKSINSATHYAESVKGRFTISRDDSKSAVYLQMTDLRTEDTGVYYCSRNYYGSTYDYWGQGTTLTVSS
VL: DILLTQSPAILSVSPGERVSFSCRASQFVGSSIHWYQQRTNGSPRLLIKYASESMSGIPSRFSGSGSGTDFTLSINTVESEDIADYYCQQSHSWPFTFGSGTNLEVKR
